Antibody variant affinities, Ab-14 light chain, assay 1

Target: peptide PDVDLGDISGINAS, taken from heptad repeat 2 (HR2) of SARS-CoV-2 spike.

Parent: Ab-14, a human scFv built as VH, a (GGGGS)3 linker, VL. Only the CDRs of the light chain vary.
VH: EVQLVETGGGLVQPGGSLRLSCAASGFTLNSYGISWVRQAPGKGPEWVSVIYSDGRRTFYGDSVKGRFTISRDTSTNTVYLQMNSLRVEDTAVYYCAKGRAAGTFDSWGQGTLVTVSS
VL: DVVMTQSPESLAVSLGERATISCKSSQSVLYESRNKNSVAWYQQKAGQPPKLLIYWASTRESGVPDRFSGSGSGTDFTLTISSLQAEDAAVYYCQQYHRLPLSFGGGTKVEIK

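The parent was found by panning a naive human phage display library on the peptide. The library (AAYL50) carries one to three amino acid substitutions per variant, with no insertions or deletions. Affinity was read by AlphaSeq, a pooled yeast mating assay with surface-displayed partners. Binding brings cells together so that they mate, and sequencing counts the barcode pairs among the diploids. Scores were corrected for input abundance and mapped to Kd with protein pairs of known affinity run in the same pool. Mating was done three times.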

Positions count from residue 1 of the parent VL; E32P puts P in place of E. Affinities are written as log10 Kd with Kd in nM; a lower number is a better binder. A pair that was not seen in that replicate is written "nd"; this usually means weak binding, but a binder can also be missed. Empty control strains, which show no peptide, gave a signal in 18% of pairings with library AAYL50; the median was 4.19 and 95% of these signals were weaker than 2.99. No background was subtracted. The control count says in how many pairings with the empty strains this scFv gave a signal, with their mean in brackets.

changes,log10 Kd (nM) by replicate,empty controls
E32P/A40Y/R99A,nd 4.21 4.97,2 of 9 (3.07)
A57R/Q95D/Y97N,nd nd nd,1 of 9 (4.16)
S38K/S58T/H98G,3.28 2.42 2.63,7 of 9 (4.52)
S28W/W56H/R60I,nd nd nd,0 of 9
V29P/Y31C/N35I,3.23 2.81 3.07,0 of 9
R34W/Y97N/L102Y,0.51 0.75 0.72,4 of 9 (5.08)
S28A/Q95Y/S103C,0.95 1.22 1.27,2 of 9 (3.59)
S26D/V39W/Q95F,nd 4.57 nd,1 of 9 (4.94)
S25L/H98G/S103C,0.24 0.42 0.26,6 of 9 (4.89)
S26L/S28Y/S103P,3.38 3.60 4.49,4 of 9 (3.92)
Q27T/S58Y/P101K,1.75 1.48 nd,0 of 9
V39I/A40Q/L102A,nd nd nd,2 of 9 (3.79)
L30P/A40N/S62G,nd nd nd,1 of 9 (3.70)
S28E/V29P/N37A,1.18 1.37 1.44,6 of 9 (3.97)
V39T/H98C/L102I,2.39 2.48 3.65,1 of 9 (4.22)
A57L/S103C,nd 2.07 3.20,1 of 9 (4.64)
S38Y/A57Q/Q96F,5.33 3.88 4.48,7 of 9 (4.75)
K36E/Q96D/S103I,0.97 1.13 1.11,0 of 9
Q27A/S33A/L102R,0.67 1.03 0.68,0 of 9
S38V/A57K,6.12 3.55 nd,3 of 9 (3.71)
S26F/V29L/H98Q,2.25 2.05 2.14,0 of 9
R34D/P101Y,nd nd nd,0 of 9
V29T/V39H/A57L,nd 4.83 nd,3 of 9 (3.81)
N37L/V39L/E61C,3.09 nd 3.22,2 of 9 (3.86)
S25F/E61S,-0.09 0.18 -0.02,2 of 9 (4.83)
Y31A/T59V/E61Q,1.16 1.11 0.98,1 of 9 (4.60)
S26E,1.19 1.33 1.23,1 of 9 (3.24)
N37D/H98K/S103E,0.77 0.94 0.94,1 of 9 (5.89)
K24I/H98R,1.83 1.74 1.66,2 of 9 (4.06)
S33Y/A57V/T59V,2.67 2.69 3.18,3 of 9 (5.18)
N35T/E61D/Q96P,2.59 2.67 2.78,1 of 9 (4.09)
E61R/R99K/L102W,nd nd nd,0 of 9
Y31H/A57G/T59I,0.69 0.96 0.90,1 of 9 (4.32)
S26C/L30V/Y31P,1.56 1.48 1.58,0 of 9
A40W/R60M/H98S,nd nd nd,1 of 9 (2.92)
V29T/S33A/W56Q,-0.39 0.11 -0.25,7 of 9 (4.47)
V29S/L30H/Y97K,nd nd 2.88,1 of 9 (3.19)
N37G/S38A/S62N,0.60 0.75 0.74,3 of 9 (4.05)
R34S/K36P/N37K,nd nd 3.97,0 of 9
Q27S/S33V/H98K,3.72 2.74 2.44,4 of 9 (3.92)
Q27R/W56Q/L102N,nd 4.97 nd,0 of 9
S28G/S58E/R60H,2.41 nd nd,0 of 9
S25P/A57V/S58G,nd nd nd,0 of 9
S25M/S26I/S33G,0.54 0.74 0.70,3 of 9 (4.80)
L30P/K36L/S58E,2.38 2.19 2.15,0 of 9
K24A/Q27G/R34V,2.99 3.55 nd,0 of 9
E61A/Q95N/L102T,nd 3.85 4.38,5 of 9 (4.51)
Q27A/N37I/P101Q,nd nd nd,3 of 9 (3.79)
S26M/S28N/R60W,5.20 3.35 nd,0 of 9

Values reported by Engelhart et al. 2022, doi:10.1038/s41597-022-01779-4 (FLAb copy).